According to patent US20230255912A1, “COMPOSITIONS AND METHODS FOR TREATING CRP-MEDIATED DISEASES” (Ponce de Leon Health Designated Activity Company, priority 2020, published 2023):

Columns and labels:
[1] = cited from earlier work
[2] = for A1C: baseline 5.0; for PSA: baseline 7.5; for LDL: baseline 103
Source text: METHOD EXAMPLE. Blood chemistry. […] Prior to the start of dosing, a baseline blood draw is obtained for hematology, chemistry, CRP measurement, and metabolite analyses. After the start of dosing, blood draws are obtained monthly.

inflammatory cytokines = details: female mice treated from 18 months to 29 months, compared to aged controls
Method: METHOD EXAMPLE. Cytokine Levels in Aged Mice. Female mice (18 months) are divided into treatment and untreated groups. Baseline levels of 30 inflammatory cytokines are measured. […] Following treatment, levels of 30 inflammatory cytokines are measured from serum samples and compared to untreated controls.

C-reactive protein (CRP) = test system: C-reactive protein (CRP)
Source text: METHOD EXAMPLE. […] Prior to the start of dosing, a baseline blood draw is obtained for hematology, chemistry, CRP measurement, and metabolite analyses. After the start of dosing, blood draws are obtained monthly.

O=C(O)CCC(=O)C(=O)O [AKG, 2-oxopentanedioic acid]
serious adverse events in clinical trials [1]: No serious adverse events
toxicological profile ([1]; in vivo): non-toxic
relative levels of good versus bad cholesterol ([2]; human volunteer, vs baseline): improves

O.O=C([O-])CCC(=O)C(=O)[O-].[Ca+2] [Ca-AKG, calcium alpha-ketoglutarate monohydrate]
average of 30 cytokines in serum (inflammatory cytokines): general reduction
serious adverse events in clinical trials [1]: No serious adverse events
decrease in CRP level, Subject 1 (C-reactive protein (CRP); Subject 1, after only 3 months of treatment vs baseline): 84%
decrease in CRP level, Subject 2 (C-reactive protein (CRP); Subject 2, starting low level of CRP, 3-7 months of treatment vs baseline): 25%
change in CRP level in treated subjects (C-reactive protein (CRP); all treated subjects, 3-7 months of treatment vs baseline): A decrease in CRP level was observed in all treated subjects
average decrease in CRP level (C-reactive protein (CRP); human volunteers, two 500 mg CaAKG tablets daily, 3-7 months of treatment vs baseline (t=0)): 54%
A1C ([2]; 10 Months): 5.1%
PSA ([2]; 10 Months): 10.1 ng/mL
LDL ([2]; 10 Months): 98 mg/dL
A1C ([2]; 12 Months): 4.9%
PSA ([2]; 12 Months): 7.7 ng/mL
LDL ([2]; 12 Months): 95 mg/dL

Where two headings read alike, the source gives them in different places.
